Assays:
KRas^G12D = KRas^G12D (Homo sapiens, UniProt P01116, G12D)
KRas^G12R = KRas^G12R (Homo sapiens, UniProt P01116, G12R)
KRas^G12V = KRas^G12V (Homo sapiens, UniProt P01116, G12V)
[1] = test system: KRas-mediated phosphorylation of ERK in AsPC-1 cells
[2] = test system: KRas-mediated phosphorylation of ERK in H727 cells

Amino acid sequences for entries named in this document (tags omitted). Residues count along the entry.
UniProt P01116, 1-169 isoform 2 G12D limits assumed: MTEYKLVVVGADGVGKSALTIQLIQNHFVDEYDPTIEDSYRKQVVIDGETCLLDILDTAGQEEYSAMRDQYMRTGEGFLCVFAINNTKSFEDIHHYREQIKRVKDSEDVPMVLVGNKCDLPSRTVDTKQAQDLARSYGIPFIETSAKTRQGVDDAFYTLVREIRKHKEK
UniProt P01116, 1-169 isoform 2 G12R limits assumed: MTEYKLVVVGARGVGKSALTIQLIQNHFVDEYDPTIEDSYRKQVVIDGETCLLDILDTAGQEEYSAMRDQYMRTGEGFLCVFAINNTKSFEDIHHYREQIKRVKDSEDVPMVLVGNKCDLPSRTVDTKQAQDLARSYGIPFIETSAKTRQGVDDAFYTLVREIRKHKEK
UniProt P01116, 1-169 isoform 2 G12V limits assumed: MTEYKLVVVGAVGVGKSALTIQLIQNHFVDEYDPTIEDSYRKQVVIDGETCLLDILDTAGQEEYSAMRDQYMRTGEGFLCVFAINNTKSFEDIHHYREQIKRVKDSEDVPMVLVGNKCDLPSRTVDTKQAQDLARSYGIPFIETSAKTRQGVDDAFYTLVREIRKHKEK

Work on `CCc1c(F)ccc2cc(O)cc(-c3ncc4c(NCc5cc(C(=O)N(C)C)nn5C(F)F)nc(OC[C@@]56CCCN5C[C@H](F)C6)nc4c3F)c12` yielded an IC50 (KRas^G12D) of 32 nM, an IC50 (KRas^G12R) of 26 nM and an IC50 (KRas^G12V) of 10 nM. For the same compound, the IC50 [1] was 3650 nM and the IC50 [2] was 936 nM.
